How the values were obtained:
Histone deacetylase 3 = Histone deacetylase 3 (Homo sapiens, UniProt O15379)
Histone deacetylase 6 = molecular target: T1, Histone deacetylase 6 (Homo sapiens, UniProt Q9UBN7)
T1 sequence (Q9UBN7 whole entry): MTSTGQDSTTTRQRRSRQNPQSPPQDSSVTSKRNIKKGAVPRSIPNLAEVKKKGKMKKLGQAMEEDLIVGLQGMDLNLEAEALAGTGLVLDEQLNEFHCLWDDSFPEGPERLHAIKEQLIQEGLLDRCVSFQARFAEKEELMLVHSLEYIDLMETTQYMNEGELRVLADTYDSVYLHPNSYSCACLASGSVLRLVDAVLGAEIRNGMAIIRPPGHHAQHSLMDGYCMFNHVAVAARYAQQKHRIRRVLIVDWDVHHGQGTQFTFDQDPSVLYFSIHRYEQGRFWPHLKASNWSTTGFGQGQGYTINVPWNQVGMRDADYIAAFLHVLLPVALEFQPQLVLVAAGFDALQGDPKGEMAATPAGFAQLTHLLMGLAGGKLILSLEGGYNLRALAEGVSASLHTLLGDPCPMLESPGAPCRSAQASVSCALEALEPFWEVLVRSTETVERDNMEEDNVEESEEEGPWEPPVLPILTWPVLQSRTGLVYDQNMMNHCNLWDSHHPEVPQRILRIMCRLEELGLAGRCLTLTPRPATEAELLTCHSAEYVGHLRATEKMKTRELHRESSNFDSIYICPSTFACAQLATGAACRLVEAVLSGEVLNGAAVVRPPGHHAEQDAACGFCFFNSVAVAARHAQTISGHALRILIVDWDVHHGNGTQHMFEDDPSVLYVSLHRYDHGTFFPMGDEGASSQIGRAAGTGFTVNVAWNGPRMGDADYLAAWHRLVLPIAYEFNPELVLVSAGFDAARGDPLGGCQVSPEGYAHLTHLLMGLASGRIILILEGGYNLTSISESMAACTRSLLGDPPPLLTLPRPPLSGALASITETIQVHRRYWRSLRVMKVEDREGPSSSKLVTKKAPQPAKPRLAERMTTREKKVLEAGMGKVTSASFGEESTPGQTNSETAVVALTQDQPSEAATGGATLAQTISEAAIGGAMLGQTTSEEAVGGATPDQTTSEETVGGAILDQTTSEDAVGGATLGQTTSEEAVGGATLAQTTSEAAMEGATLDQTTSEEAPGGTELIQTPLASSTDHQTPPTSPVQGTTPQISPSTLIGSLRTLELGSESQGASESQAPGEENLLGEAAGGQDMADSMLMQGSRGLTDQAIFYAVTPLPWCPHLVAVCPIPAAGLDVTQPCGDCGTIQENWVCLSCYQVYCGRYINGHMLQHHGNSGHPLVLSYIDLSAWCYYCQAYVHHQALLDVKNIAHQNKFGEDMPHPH

Sequences of proteins named here, by UniProt entry; tags and fusion partners are left off. A change or cut given only in a name is not applied to a line headed by its entry.
UniProt O15379: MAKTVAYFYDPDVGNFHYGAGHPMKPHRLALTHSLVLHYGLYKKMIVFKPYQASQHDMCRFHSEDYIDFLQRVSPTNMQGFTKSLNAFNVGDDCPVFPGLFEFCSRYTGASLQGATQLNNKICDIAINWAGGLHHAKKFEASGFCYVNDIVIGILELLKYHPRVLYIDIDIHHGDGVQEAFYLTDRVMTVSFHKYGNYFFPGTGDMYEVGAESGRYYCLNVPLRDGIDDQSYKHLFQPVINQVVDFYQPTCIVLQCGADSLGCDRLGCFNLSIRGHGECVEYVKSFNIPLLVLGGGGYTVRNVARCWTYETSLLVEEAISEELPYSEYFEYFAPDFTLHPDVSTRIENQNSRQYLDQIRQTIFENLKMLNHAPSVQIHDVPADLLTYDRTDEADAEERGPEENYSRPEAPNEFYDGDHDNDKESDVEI

Row | SMILES | IC50 (Histone deacetylase 3) [nM] | IC50 (Histone deacetylase 6) [nM]
1 | N[C@@H](CCCCCC(=O)C1COC=N1)C1NC=C(c2ccccc2F)N1 (stereo partly drawn) [US12331044, Example 36] | 150 | 
2 | N[C@@H](CCCCCC(=O)c1ccon1)C1NC=C(c2ccccc2F)N1 (stereo partly drawn) [US12331044, Example 37] | 1.18 | 45000
